Laboratory results from publication PMC4266362 (Journal of Medicinal Chemistry, 2014).

Sequences of proteins named here, by UniProt entry; tags and fusion partners are left off. Residues count along the entry.
UniProt P43220, 24-463: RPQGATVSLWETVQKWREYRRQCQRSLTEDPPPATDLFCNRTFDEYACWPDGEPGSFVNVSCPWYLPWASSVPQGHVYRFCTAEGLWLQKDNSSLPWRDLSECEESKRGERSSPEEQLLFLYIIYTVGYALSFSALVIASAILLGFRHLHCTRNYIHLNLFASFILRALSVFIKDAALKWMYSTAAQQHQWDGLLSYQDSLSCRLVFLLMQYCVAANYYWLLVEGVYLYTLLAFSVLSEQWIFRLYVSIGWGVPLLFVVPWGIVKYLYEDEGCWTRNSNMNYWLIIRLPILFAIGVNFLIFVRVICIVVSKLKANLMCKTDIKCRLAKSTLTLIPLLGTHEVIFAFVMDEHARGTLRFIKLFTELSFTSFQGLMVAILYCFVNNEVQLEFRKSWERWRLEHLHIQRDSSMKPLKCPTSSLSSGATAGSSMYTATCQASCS

Molecular target: human GLP-1R (Homo sapiens, UniProt P43220)

## CCN1CCC[C@H]1CNC(=O)c1cn(C2CCCC2)c(=O)c2c1c1ccccc1n2C [(S)-8]
Increased from 100.3
  GLP-1 %max in fold-shift experiment: 129.6%
Standard fold-shift experiment
  fold shift of the GLP-1 concentration–response curve: ~2 fold
